This is an account of results in patent publication US20090227607A1, “DEAZAPURINES USEFUL AS INHIBITORS OF JANUS KINASES” (priority 2006, published 2009).

The chains behind the UniProt entries cited, without tags or fusion partners.
UniProt O60674, whole entry: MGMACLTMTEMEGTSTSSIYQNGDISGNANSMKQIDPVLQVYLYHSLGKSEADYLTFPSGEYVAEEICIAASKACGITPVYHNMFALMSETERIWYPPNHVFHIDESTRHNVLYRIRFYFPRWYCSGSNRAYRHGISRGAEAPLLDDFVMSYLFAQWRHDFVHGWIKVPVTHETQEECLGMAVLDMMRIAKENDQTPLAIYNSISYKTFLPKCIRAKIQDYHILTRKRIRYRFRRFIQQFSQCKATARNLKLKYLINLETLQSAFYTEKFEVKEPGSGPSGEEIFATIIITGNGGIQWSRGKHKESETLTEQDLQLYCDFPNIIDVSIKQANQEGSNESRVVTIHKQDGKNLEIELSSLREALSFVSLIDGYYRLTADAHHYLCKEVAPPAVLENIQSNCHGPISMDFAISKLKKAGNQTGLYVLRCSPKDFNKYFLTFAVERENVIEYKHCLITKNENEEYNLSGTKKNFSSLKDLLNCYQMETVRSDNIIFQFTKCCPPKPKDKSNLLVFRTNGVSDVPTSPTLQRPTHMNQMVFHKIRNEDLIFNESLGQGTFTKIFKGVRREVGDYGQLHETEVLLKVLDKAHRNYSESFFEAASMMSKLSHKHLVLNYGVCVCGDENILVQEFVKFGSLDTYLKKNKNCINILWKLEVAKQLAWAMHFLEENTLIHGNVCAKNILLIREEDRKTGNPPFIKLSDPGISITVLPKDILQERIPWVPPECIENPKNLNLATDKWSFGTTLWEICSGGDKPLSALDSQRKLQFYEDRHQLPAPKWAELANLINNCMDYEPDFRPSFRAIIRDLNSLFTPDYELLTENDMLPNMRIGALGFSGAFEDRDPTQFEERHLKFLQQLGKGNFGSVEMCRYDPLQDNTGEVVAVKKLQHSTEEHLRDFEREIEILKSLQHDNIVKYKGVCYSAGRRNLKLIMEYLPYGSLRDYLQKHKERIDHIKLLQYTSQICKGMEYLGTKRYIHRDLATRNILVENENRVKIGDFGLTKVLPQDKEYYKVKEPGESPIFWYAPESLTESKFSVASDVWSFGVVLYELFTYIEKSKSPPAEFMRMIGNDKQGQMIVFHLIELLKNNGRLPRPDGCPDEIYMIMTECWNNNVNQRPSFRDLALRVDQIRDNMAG
UniProt P52333, whole entry: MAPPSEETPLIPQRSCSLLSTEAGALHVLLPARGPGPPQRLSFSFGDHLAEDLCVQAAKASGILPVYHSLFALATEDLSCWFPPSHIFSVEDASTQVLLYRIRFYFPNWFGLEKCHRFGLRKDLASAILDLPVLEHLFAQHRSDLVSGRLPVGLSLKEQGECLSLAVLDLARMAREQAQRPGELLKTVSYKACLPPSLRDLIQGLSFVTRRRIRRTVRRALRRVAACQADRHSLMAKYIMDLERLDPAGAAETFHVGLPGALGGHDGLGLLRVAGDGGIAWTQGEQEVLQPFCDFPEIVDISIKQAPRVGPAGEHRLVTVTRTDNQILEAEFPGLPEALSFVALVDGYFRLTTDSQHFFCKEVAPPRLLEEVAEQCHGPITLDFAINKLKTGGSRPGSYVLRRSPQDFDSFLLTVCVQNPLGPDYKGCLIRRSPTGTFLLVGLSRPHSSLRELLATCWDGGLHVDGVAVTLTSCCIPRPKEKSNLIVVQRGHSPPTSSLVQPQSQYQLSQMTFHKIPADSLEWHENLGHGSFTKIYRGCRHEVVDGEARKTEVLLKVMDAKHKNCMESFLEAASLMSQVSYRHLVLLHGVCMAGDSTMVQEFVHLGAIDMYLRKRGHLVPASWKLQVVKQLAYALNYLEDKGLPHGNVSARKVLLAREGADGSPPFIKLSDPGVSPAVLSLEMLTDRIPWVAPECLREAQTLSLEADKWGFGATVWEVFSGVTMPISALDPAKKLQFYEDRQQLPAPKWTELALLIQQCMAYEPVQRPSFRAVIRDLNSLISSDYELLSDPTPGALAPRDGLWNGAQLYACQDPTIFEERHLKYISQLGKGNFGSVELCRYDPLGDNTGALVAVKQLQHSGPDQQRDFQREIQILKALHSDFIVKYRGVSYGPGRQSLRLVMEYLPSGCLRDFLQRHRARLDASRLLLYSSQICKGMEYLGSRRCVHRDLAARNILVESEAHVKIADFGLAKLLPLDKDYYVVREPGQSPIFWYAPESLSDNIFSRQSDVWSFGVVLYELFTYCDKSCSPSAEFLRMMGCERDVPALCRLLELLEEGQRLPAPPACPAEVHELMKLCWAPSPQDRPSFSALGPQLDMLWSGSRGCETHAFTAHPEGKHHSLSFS

One assay has as its target JAK-2 enzyme (Homo sapiens, UniProt O60674). As to the kind of experiment: JAK2 Inhibition Assay. Particulars: read-out: JAK2 enzyme inhibition data (Ki); 15 μM poly(Glu)4Tyr, 12 μM ATP, 25° C.
The target of another assay is JAK3 (Homo sapiens, UniProt P52333). Nature of the assay: JAK3 Inhibition Assay. Particulars: read-out: JAK3 enzyme inhibition data (Ki); 1 μM poly(Glu)4Tyr, 5 μM ATP, 1 nM JAK3, 25° C.

The structures appear in SMILES notation.

The Ki is a dissociation constant, usually derived from enzyme kinetics or from competition with a known ligand. With `COC(=O)CC(C)(C)CC(=O)Nc1nc(-c2ccnc3[nH]ccc23)cs1`, the inhibitory constant (Ki) is less than 100 nM at JAK-2 enzyme and 100 to 500 nM on JAK3.
Regarding `COC(=O)CCC(=O)Nc1nc(-c2ccnc3[nH]ccc23)cs1`, the inhibition constant (Ki) at JAK-2 enzyme and on JAK3 was 100 to 500 nM each time.
For `COC(=O)c1ccccc1C(=O)Nc1nc(-c2ccnc3[nH]ccc23)cs1`, the inhibition constant Ki at JAK-2 enzyme and at JAK3 was 100 to 500 nM each time.
In the case of `COC(=O)C1CCCCC1C(=O)Nc1nc(-c2ccnc3[nH]ccc23)cs1` (single isomer, unassigned), the figures for the Ki at JAK-2 enzyme and on JAK3 were less than 100 nM and 100 to 500 nM, respectively.
For `NC1CCC(C(=O)Nc2nc(-c3ccnc4[nH]ccc34)cs2)CC1` (centres unmarked), the inhibition constant Ki was 500 to 5000 nM on JAK-2 enzyme and more than 5000 nM at JAK3.
Taken in the same sequence, the figures for `Nc1nc(-c2ccnc3[nH]ccc23)cs1` were 500 to 5000 nM and 500 to 5000 nM.
Turning to `COC(=O)[C@H]1C[C@H]1C(=O)Nc1nc(-c2ccnc3[nH]ccc23)cs1` (relative stereo), the values for the inhibition constant Ki on JAK-2 enzyme and on JAK3 were less than 100 nM and 100 to 500 nM, respectively.
Regarding `O=C(O)[C@H]1C[C@H]1C(=O)Nc1nc(-c2ccnc3[nH]ccc23)cs1` (relative stereo), the inhibitory constant (Ki) at JAK-2 enzyme and on JAK3 was 500 to 5000 nM in each case.
As to `COC(=O)CC1(CC(=O)Nc2nc(-c3ccnc4[nH]ccc34)cs2)CCCC1`, the values for the Ki at JAK-2 enzyme and on JAK3 were less than 100 nM and 100 to 500 nM, respectively.
Taken in the same sequence, the figures for `O=C(O)c1ccccc1C(=O)Nc1nc(-c2ccnc3[nH]ccc23)cs1` were 100 to 500 nM and 500 to 5000 nM.
